# Source: US7326707B2, “Bicyclic melanocortin-specific compounds” (Palatin Technologies Incorporated, priority 2001, dated 2008)
# Protein sequences, listed by entry. Tags and fused reporters are not part of them.
# UniProt P33032, whole entry: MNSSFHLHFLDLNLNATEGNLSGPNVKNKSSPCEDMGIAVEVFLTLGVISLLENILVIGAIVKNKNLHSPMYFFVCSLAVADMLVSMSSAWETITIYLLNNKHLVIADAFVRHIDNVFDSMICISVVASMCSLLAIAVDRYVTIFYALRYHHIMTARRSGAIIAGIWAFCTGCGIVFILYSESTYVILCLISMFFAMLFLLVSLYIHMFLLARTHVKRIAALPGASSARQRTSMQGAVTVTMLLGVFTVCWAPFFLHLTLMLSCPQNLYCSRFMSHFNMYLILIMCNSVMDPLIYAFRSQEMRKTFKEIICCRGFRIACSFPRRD
# UniProt P41968, whole entry: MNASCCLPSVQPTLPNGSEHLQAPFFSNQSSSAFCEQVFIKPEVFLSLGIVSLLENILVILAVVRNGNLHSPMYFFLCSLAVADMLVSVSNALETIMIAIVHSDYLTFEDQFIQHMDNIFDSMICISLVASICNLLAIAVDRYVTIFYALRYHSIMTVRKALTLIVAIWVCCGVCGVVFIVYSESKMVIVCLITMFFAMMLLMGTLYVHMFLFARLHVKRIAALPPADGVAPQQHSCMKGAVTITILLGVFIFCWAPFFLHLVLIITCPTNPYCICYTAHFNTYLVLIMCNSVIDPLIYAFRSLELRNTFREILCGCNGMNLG
# UniProt Q01727, whole entry: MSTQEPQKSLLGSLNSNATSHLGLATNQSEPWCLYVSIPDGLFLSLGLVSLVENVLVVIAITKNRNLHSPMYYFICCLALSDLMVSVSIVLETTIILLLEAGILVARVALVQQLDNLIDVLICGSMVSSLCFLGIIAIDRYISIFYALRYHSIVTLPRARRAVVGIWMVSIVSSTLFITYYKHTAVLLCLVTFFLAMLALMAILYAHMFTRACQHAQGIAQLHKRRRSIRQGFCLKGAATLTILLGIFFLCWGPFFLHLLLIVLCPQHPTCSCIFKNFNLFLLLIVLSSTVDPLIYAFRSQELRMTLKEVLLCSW
# What was measured:
# [1] = molecular target: hMC5-R (Homo sapiens, UniProt P33032); assay: Competitive inhibition binding assay, 125I-NDP-α-MSH, MC5-R; details: 1 μM compound; inhibition of 125I-NDP-α-MSH binding; mean of triplicates; results less than 0% reported as 0%
# [2] = tested on: Male Sprague-Dawley rats; assay: ICV food intake and body weight change; details: 1 nmol dose
# [3] = molecular target: MC3-R (HEK-293 cells expressing MC3-R) (Homo sapiens, UniProt P41968); assay: Ki determination by the method of Example 4, MC3-R; details: read-out: Ki (nM) MC3-R
# [4] = molecular target: MC1-R (B-16 mouse melanoma cells) (Mus musculus, UniProt Q01727); assay: cAMP assay for agonist/antagonist status, MC1-R; details: cAMP assay as in Example 5
compound,measurement,setting,value
NCCCC[C@H]1C(=O)N2C(CC[C@@H]2COc2ccc3ccccc3c2)N1C(=O)[C@@H](Cc1ccccc1)NC(=O)[C@@H](N)Cc1cnc[nH]1 (some centres unmarked),Inhibition at 1 μM MC5-R,[1],0%
N=C(N)NCCC[C@H]1C(=O)N2C(CC[C@@H]2COc2ccc3ccccc3c2)N1C(=O)[C@@H](Cc1ccc(Cl)cc1Cl)NC(=O)[C@@H]1Cc2ccccc2CN1 (some centres unmarked),24 hour change in food intake,[2],-5.4 g
same,change in weight,[2]; 24 hour,-1.6 g
N=C(N)NCCC[C@H]1C(=O)N2C(CC[C@@H]2COc2ccc3ccccc3c2)N1C(=O)[C@@H](Cc1ccccc1)NC(=O)[C@@H](N)Cc1cnc[nH]1 (some centres unmarked),Ki,[3],963 nM
same,agonist/antagonist status as to MC1-R,[4],full agonist
